Values of other authors in article PMC5249144, “T Cell Subset and Stimulation Strength-Dependent Modulation of T Cell Activation by Kv1.3 Blockers” (PLoS ONE, 2017).

Tested on: allergic airway inflammation
Details: ref [40]; cited from earlier work
Source text: In order to better understand the therapeutic potential of Kv1.3 blockers therefore, we investigated the effects of Kv1.3 blockers on T cells activated by disease relevant antigens. […] The ...

Substance: CTLA4-Ig: CD28 blocker, FDA-approved T cell inhibitor which blocks co-stimulatory CD28 signals
- efficacy in allergic airway inflammation, in words: efficacious in the treatment of allergic airway inflammation
